Laboratory results: patent publication US20240366775A1, “HUMAN TRANSFERRIN RECEPTOR BINDING ANTIBODY-PEPTIDE CONJUGATE” (PEPTIDREAM INC., priority 2021, published 2024)

Tests used:
[1] = ELISA no-target control wells (non-specific binding of antibodies and antibody-peptide conjugates); conditions: sample at 100 nM, no target immobilized
Experimental: Random biotinylated PD-1 was added to IMMOBILIZER STREPTAVIDIN F96 clear (NUNC, Cat. No. 436014) at 1 μmol per one well and incubated at 4° C. overnight to perform solidification. The plate was washed with 900 μL of PBST in a plate washer (TECAN, HydroSpeed). 300 μL of 1% Block Ace (KAC Co., Ltd., Cat. No. UK-B80) was added per one well and incubated at room temperature for 90 minutes to perform blocking treatment. The plate was washed with 900 μL of PBST in the plate washer. […] The plate was washed with 900 μL of PBST in the plate washer. 50 μL of Goat Anti-Human IgG H&L (HRP) (Abcam, Cat. No. ab97165) diluted 50,000 times with PBST-0.1% Block Ace solution was added and incubated at room temperature for 45 min. The plate was washed with 900 μL of PBST in the plate washer. […] The absorbance at 450 nm was measured in a plate reader (Enspir (trademark), Perkin Elmer).
Random biotinylated TfR was added to IMMOBILIZER STREPTAVIDIN F96 clear (NUNC, Cat. No. 436014) at 1 μmol per one well and incubated at 4° C. overnight to perform solidification. […] The absorbance at 450 nm was measured in a plate reader (Enspir (trademark), Perkin Elmer).

[2] = Test substance concentration in plasma, hTfR-KI mouse; assay type: in vivo, hTfR-KI mice; conditions: Example 7-1, tail vein 5 mg/kg, 1, 3, 6 and 24 hours, FIG. 2-1
Experimental: (§1) Blood was drawn from the tail vein after 1 and 3 hours from administration (2 mice/time point). After 6 and 24 hours from administration, mice were anesthetized with isoflurane, blood was drawn from the right ventricle, and then perfused with saline from the left ventricle for 4 to 5 min for blood removing treatment. Blood was collected using an EDTA-2K-treated needle and syringe, and the collected blood was kept on ice until it was separated into plasma. After blood removing treatment, brains were harvested and divided into left and right portions, and the left brain was embedded in a freeze-embedding agent (OCT compound, Sakura Finetek Co., Ltd.) for immunostaining and a frozen block was prepared. The right brain, heart, lung, liver, spleen, kidney, and quadriceps muscle were collected for measurement of test substance concentrations in tissues, weighed, flash-frozen in liquid nitrogen, and stored at −70° C. or less.
(§2) To Strept Avidin plate (Meso Scale Diagnostics, LLC), 150 μL/well of Blocker Casein in PBS (Thermo Fisher Scientific, Inc.) was added and shaken (26° C., 500 rpm) for 60 min in a plate shaker (Biosan) to perform blocking treatment. […] The concentration of each test substance in the samples were calculated by adding 150 μL/well of 2×Read Buffer T to each Strept Avidin plate and measuring with a plate reader (Sector S600, Meso Scale Diagnostics, LLC).

[3] = Test substance concentration in tissue (brain migration), hTfR-KI mouse; assay type: in vivo, hTfR-KI mice; conditions: Example 7-1, tail vein 5 mg/kg, 6 and 24 hours, heart, lung, liver, spleen, kidney, quadriceps muscle, FIG. 2-2
Experimental: as §1, with “less. […]” for “less.”
as §2

Row | Substance | Abs450 nm at 100 nM, No-target [1] | concentration in plasma, time course [2] | detection in tissues [3]
1 | cetuximab | 0.0465 |  | 
2 | trastuzumab | 0.0425 | detected in plasma at all time points evaluated and showed biphasic changes in plasma concentrations | detected in all tissues
